Sequences of proteins named here, by UniProt entry; tags and fusion partners are left off. A change or cut given only in a name is not applied to a line headed by its entry.
UniProt P41146: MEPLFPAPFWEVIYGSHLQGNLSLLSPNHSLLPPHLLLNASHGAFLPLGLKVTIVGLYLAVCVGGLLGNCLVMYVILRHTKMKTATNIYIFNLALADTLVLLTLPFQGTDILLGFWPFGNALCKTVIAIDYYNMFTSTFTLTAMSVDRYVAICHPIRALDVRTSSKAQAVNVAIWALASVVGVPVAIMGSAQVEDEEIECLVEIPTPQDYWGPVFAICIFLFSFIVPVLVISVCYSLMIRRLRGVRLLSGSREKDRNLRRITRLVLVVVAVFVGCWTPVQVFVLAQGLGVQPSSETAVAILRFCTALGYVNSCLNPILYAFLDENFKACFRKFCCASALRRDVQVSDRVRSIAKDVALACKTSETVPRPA

In ChEMBL document CHEMBL1139143, “Synthesis and structure-activity relationships of N-substituted spiropiperidines as nociceptin receptor ligands” (Bioorg Med Chem Lett, 2007):

Legend:
[1] = molecular target: Nociceptin receptor (Homo sapiens) (UniProt P41146); test: Agonist activity at human nociceptin receptor expressed in CHO cell membrane assessed as stimulation of [35S]GTP-gamma-S binding at 10 uM
Homo sapiens [2] = species on record: Homo sapiens; test: Selectivity for human nociceptin receptor over human mu opioid receptor
Homo sapiens [3] = species on record: Homo sapiens; test: Selectivity for human nociceptin receptor over human kappa opioid receptor
[4] = molecular target: Nociceptin receptor (Homo sapiens) (UniProt P41146); test: Agonist activity at human nociceptin receptor expressed in CHO cell membrane assessed as stimulation of [35S]GTP-gamma-S binding at 0.1 uM

For `O=C1NCN(c2ccccc2)C12CCN(C(c1ccccc1)c1ccccc1F)CC2` (stereo not drawn), the Activity [1] was 87%.

`O=C1NCN(c2ccccc2)C12CCN(C1CCCc3ccccc31)CC2` (stereo not drawn) was tested, and the Ratio Ki (Homo sapiens [2]) was 16 and the Ratio Ki (Homo sapiens [3]) was 46.

Molecule `O=C1NCN(c2ccccc2)C12CCN(Cc1ccccc1)CC2` has a Ratio Ki (Homo sapiens [3]) of 18.

Work on `CC1(C)CCC(N2CCC3(CC2)C(=O)NCN3c2ccccc2)c2cc(Cl)c(Cl)cc21` (stereo not drawn) yielded an Activity [4] of 104%.

`O=C1NCN(c2ccccc2)C12CCN(C(c1ccccc1)c1ccccc1Cl)CC2` (stereo not drawn) gave an Activity [1] of 87%.

`O=C1NCN(c2ccccc2)C12CCN(CC1CCCCC1)CC2` showed a Ratio Ki (Homo sapiens [3]) of 8.5.

`O=C1NCN(c2ccccc2)C12CCN(C(c1ccccc1F)c1ccccc1F)CC2` was tested, and the Activity [1] was 104%.
